Experimental data as given in US20230287003A1, “BCL6 INHIBITORS” (Cancer Research Technology Limited, priority 2018, published 2023).

Target: human BCL6 BTB domain (Trx-6×His-BCL6) / BCOR-AF633 peptide (Homo sapiens (Human), UniProt P41182)
Test: HTRF assay
Type: binding

SMILES: Cn1c(=O)c2c(c3cc(Nc4ccnc(Cl)c4C#N)ccc31)N[C@@H](C1CC1)CCO2 [Example 1d, (R)-2-chloro-4((2-cyclopropyl-7-methyl-6-oxo-1,2,3,4,6,7-hexahydro-[1,4]oxazepino[2,3-c]quinolin-10-yl)amino)nicotinonitrile]
- HTRF avg pIC50 (1 nM): 7.41
